Source: PubChem BioAssay (National Center for Advancing Translational Sciences (NCATS))
Compounds with a hit are over-represented: about 2.3% of the library has one in this group of screens.
miR-21 reporter – miR-21 reporter, rising signal. 340,000 tested, under 10 active. Potency, µM (highest dose often 38.3 µM), for the others: at the highest dose reporter change, positive = more light. HeLa miR-21 FLuc reporter, luciferase, 48 h. AID 2288; active = well fitted rising curve with a large enough effect; inconclusive = small, poorly fitted or top-dose-only effect; inactive = no such curve, though single readings can be large or run the other way;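 further: % of control where 0% means no effect; miR-21 action dims this reporter so a rising signal means less miR-21 action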
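Luminescence from a firefly luciferase reporter carrying a miR-21 binding site downstream, stably expressed under a CMV promoter in HeLa cells that make miR-21 endogenously, reports miRNA modulation after 48 h compound exposure up to approximately 40uM final.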
Nrf2 block – Nrf2 pathway inhibition; AID 504444; Potency, µM (series often up to 46 µM), without a hit: top-dose activity change, negative = inhibition, hits mostly inhibitors; A549 ARE-Fluc reporter, luciferase luminescence, 18-24 h; 360,000 compounds, 2.1% hits; note: potency is the fitted concentration of half-maximal effect; % is set by controls: 0 for no effect and ±100 for the full control effect; nearly all actives have a fitted effect of over 60% in size
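Nrf2 activity is the BugLite luminescence, read 15 min after reagent at room temperature, following CellTiter-Fluor cytotoxicity readout (30 min, 37C). Compound titrations were applied for 18-24 h to 5000 A549 ARE_Fluc cells/well in 5% FBS OPTI-MEM.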
Nrf2 activator – activates Nrf2 signaling; AREc32 ARE-luciferase reporter (MCF7-derived line), luminescence, 24 h; Potency, µM (doses to about 46.1 µM), for the others: top-dose activation, actives largely listed as activators; 410,000 compounds, 0.31% hits; AID 624171; note: potency is the fitted concentration of half-maximal effect; % of control where 0% means no effect; nearly all actives have a fitted effect of over 65% in size
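AREc32 cells carrying an ARE-driven firefly luciferase, 1000 cells/well in OPTI-MEM with 5% FBS, dosed after overnight attachment and incubated 24 hr at 37 deg C. Steady-Glo luminescence read after 30 min at RT.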
A549 tox-1 – A549 cytotoxicity, counter-screen for Nrf2 inhibitors; 390,000 compounds, 0.16% hits; Potency, µM (titrated, usually from 46 µM), for the others: at the highest dose activity change, negative = cytotoxicity, usual class: inhibitors; A549 ARE-Fluc cells, CellTiter-Fluor viability, 18-24 h; AID 504648; note: potency is the fitted concentration of half-maximal effect; % is set by controls: 0 for no effect and ±100 for the full control effect
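A549 ARE_Fluc cells in 5% FBS OPTI-MEM were exposed to compounds in concentration-response for 18-24 h at 37 deg C. Viability was read by CellTiter-Fluor fluorescence (Ex 405/Em 525) after 30 min, before the luciferase read.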
Mito fusion yeast – inhibitors of mitochondrial division or activators of mitochondrial fusion | S. cerevisiae fusion-defective mutant growth rescue, CellTiterGlo 48 h | Potency, µM (series often up to 46.1 µM), without a hit: at the highest dose growth rescue (activation), most hits filed as activators | 320,000 compounds, 0.23% hits; note: potency is the fitted concentration of half-maximal effect; % of control where 0% means no effect; nearly all actives have a fitted effect of over 45% in size
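Luminescent cell viability in 1536-well qHTS format served as the measure of rescued growth in ts fusion-mutant S. cerevisiae cultured on non-fermentable YPEG for 48 hours at 37C.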
Glioma ERSR ind – ER stress response induction in glioma. U87-MG GRP78 promoter luciferase reporter, 16 h. Potency, µM, for the others: at the top dose activation, most hits filed as activators. 420,000 compounds, 0.02% hits. AID 602332; note: potency is the fitted concentration of half-maximal effect; series mostly up to about 76 µM; % of control where 0% means no effect; nearly all actives have a fitted effect of over 35% in size
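ERSR induction read as luciferase luminescence (Bright-Glo, 10 min at room temperature) in stably transfected human U87-MG glioma cells exposed to compounds for 16 h, using GRP78 as sensor.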
FLuc counter 3 – firefly luciferase inhibition, Nrf2 hit validation; shares compounds with Nrf2 block; purified firefly luciferase, luminescence inhibition; Potency, µM (series often up to 57.5 µM), for inactives: top-dose activity change, negative = inhibition, actives largely listed as inhibitors; 1,400 compounds, 4% hits; note: potency is the fitted concentration of half-maximal effect; % is set by controls: 0 for no effect and ±100 for the full control effect; nearly all actives have a fitted effect of over 65% in size
A549 tox-2 – toxic to A549 ARE-Fluc cells in Nrf2 counterscreen. shares compounds with Nrf2 block. A549 ARE-Fluc cells, cytotoxicity counterscreen. Potency, µM (series often up to 46.1 µM), without a hit: at the top dose activity change, negative = cytotoxicity, most hits filed as inhibitors. 1,400 compounds, 2% hits. AID 720523;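 note: potency is the fitted concentration of half-maximal effect; cells exposed to compounds for 18 to 24 hours; % is set by controls: 0 for no effect and ±100 for the full control effect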
ARE-Fluc inh – Nrf2 inhibition confirmed, A549 ARE-luciferase. shares compounds with Nrf2 block. Potency, µM (doses to about 46.1 µM), for inactives: at the highest dose activity change, negative = inhibition, usual class: inhibitors. 1,400 compounds, 74% hits. A549 ARE-firefly luciferase reporter, luminescence; note: potency is the fitted concentration of half-maximal effect; % is set by controls: 0 for no effect and ±100 for the full control effect; nearly all actives have a fitted effect of over 65% in size
* hit, by the source's call; ? = inconclusive; . = no result given. Unless noted, calls come from the whole dose curve; as a rule, active = well fitted curve in the direction sought with a large enough effect; inconclusive = small, poorly fitted or top-dose-only effect, or another doubt; inactive = no such curve, though single readings can be large; an effect the other way counts as inactive or inconclusive.

1. O=C(Nc1ccccc1)c1ccc(S(=O)(=O)NCC2CCCO2)cc1 (configuration not stated)
2. O=C(c1ccccc1)N1CCC(c2nc(-c3ccc(S(=O)(=O)NCC4CCCO4)cc3)no2)CC1 (configuration not stated)
3. O=C(C1CC1)N1CCC(c2nc(-c3ccc(S(=O)(=O)NCC4CCCO4)cc3)no2)CC1 (configuration not stated)
4. COc1ccc(CCNC(=O)C(C)n2nc(C)c3c(C)n(-c4ccc(C)cc4)nc3c2=O)c(OC)c1 (configuration not stated)
5. c1cc2[nH]snc2c2nc(C3CC3)nc12
6. COc1ccc(C2=Nn3c([n+](C)c4ccccc43)SC2)cc1
7. COc1ccc(-c2nc(CSCC(=O)N3CCN(c4ccccc4F)CC3)c(C)o2)cc1
8. Cc1oc(-c2ccccc2F)nc1CSCC(=O)N1CCN(c2ccccc2)CC1

screen / no. | 1 | 2 | 3 | 4 | 5 | 6 | 7 | 8
A549 tox-2 | . | -2% | . | -10% | 0% | ? | -16% | -8%
Mito fusion yeast | 2% | 1% | 2% | -33% | 18% | 3% | . | .
FLuc counter 3 | . | -2% | . | 1% | ? | 0% | -22% | 2%
A549 tox-1 | 1% | -13% | -4% | ? | -5% | -25% | ? | -22%
Nrf2 activator | -1% | 2% | 0% | -1% | 2% | 0% | -1% | 0%
Nrf2 block | 3% | 3.7µM* | . | 5.8µM* | 7.3µM* | 2.1µM* | 5.8µM* | 7.3µM*
miR-21 reporter | -6% | 6% | 14% | 30% | 12% | ? | ? | 24%
ARE-Fluc inh | . | 5.8µM* | . | 5.8µM* | 13µM* | . | 9.2µM* | 12µM*
Glioma ERSR ind | 1% | -1% | 0% | -2% | 1% | 2% | -5% | -3%

9. Cc1oc(-c2ccccc2Cl)nc1CSCC(=O)N1CCCC1
10. COc1cc(NC(=O)COC(=O)CSc2cc(C)ccc2C)c(C)cc1[N+](=O)[O-]
11. CCCCOCCCNc1ncnc2c1[nH]c1ccccc12
12. CC(=O)N(C)c1ccc(OCC(O)Cn2c(C)nc3ccccc32)cc1 (configuration not stated)
13. CC(=O)Nc1ccc(OCC(O)Cn2c(C)nc3ccccc32)cc1 (configuration not stated)
14. CC(=O)N1CCN(c2ccc(Oc3ccc([N+](=O)[O-])c(C(F)(F)F)c3)cc2)CC1
15. CCOc1ccc(C(=O)Nc2ccc(N3CCN(C(C)=O)CC3)cc2)cc1[N+](=O)[O-]
16. CC1(C)C2CCC1(CS(=O)(=O)N1CCCC1C(=O)O)C(=O)C2 (configuration not stated)

screen / no. | 9 | 10 | 11 | 12 | 13 | 14 | 15 | 16
A549 tox-2 | . | . | -2% | 7% | . | -9% | . | .
Mito fusion yeast | -4% | 3% | 2% | 3% | 0% | 15% | -16% | .
FLuc counter 3 | . | . | -27% | 1% | . | -1% | . | .
A549 tox-1 | -2% | 2% | -13% | -18% | 5% | ? | 6% | 7%
Nrf2 activator | 0% | 0% | 2% | 0% | 0% | 0% | 3% | 0%
Nrf2 block | ? | 0% | 9.2µM* | 9.2µM* | -16% | 8.2µM* | ? | -4%
miR-21 reporter | 16% | 7% | 24% | 19% | 8% | 29% | 1% | .
ARE-Fluc inh | . | . | 12µM* | ? | . | 8.2µM* | . | .
Glioma ERSR ind | 0% | -2% | -1% | -1% | -7% | 0% | 0% | -3%

17. Cc1oc(-c2ccc(C(=O)NCCc3ccc(Cl)cc3)cc2)nc1CSc1ccccc1
18. COc1cc(NC(=O)c2ccc(-c3nc(CSc4ccccc4)c(C)o3)cc2)cc(OC)c1
19. COc1cccc(NC(=O)c2ccc(-c3nc(COc4ccc(C)cc4)c(C)o3)cc2)c1
20. Cc1ccc(SCc2nc(-c3ccc(C(=O)Nc4cc(C)ccc4C)cc3)oc2C)cc1
21. Cc1ccc2c(c1)CCO[C@@]21O[C@H](CCO)C[C@H](O)[C@H]1O
22. C/C(=N\NC(=O)c1ccc(COc2ccccc2)cc1)c1ccncc1
23. CN(C)S(=O)(=O)c1ccc(N2CCN(S(=O)(=O)c3ccc(F)cc3)CC2)c(Cl)c1
24. CCC(CC)C(=O)Nc1ccc(Sc2ccc([N+](=O)[O-])cc2)cc1

screen / no. | 17 | 18 | 19 | 20 | 21 | 22 | 23 | 24
A549 tox-2 | . | -8% | -12% | -6% | . | . | -18% | -10%
Mito fusion yeast | . | . | . | . | . | 25% | -4% | 0%
FLuc counter 3 | . | -15% | -12% | -2% | . | . | -1% | 1%
A549 tox-1 | -1% | 0% | -1% | -3% | . | 10% | -17% | ?
Nrf2 activator | -1% | 0% | 3% | 1% | 0% | 0% | 2% | 5%
Nrf2 block | -3% | 7.3µM* | 5.2µM* | 5.8µM* | . | -1% | 5.8µM* | 3.7µM*
miR-21 reporter | 0% | 25% | 7% | 1% | . | -12% | ? | ?
ARE-Fluc inh | . | 7.3µM* | ? | 7.3µM* | . | . | ? | 18µM*
Glioma ERSR ind | -1% | 0% | -1% | 0% | -3% | -1% | -1% | -3%

An excerpt of these results, in markdown:
| no. | SMILES | A549 tox-2 | Mito fusion yeast | FLuc counter 3 | A549 tox-1 | Nrf2 activator | Nrf2 block | miR-21 reporter | ARE-Fluc inh | Glioma ERSR ind |
| --- | --- | --- | --- | --- | --- | --- | --- | --- | --- | --- |
| 17 | Cc1oc(-c2ccc(C(=O)NCCc3ccc(Cl)cc3)cc2)nc1CSc1ccccc1 | . | . | . | -1% | -1% | -3% | 0% | . | -1% |
| 18 | COc1cc(NC(=O)c2ccc(-c3nc(CSc4ccccc4)c(C)o3)cc2)cc(OC)c1 | -8% | . | -15% | 0% | 0% | 7.3µM* | 25% | 7.3µM* | 0% |

The results go on:
25. CCCC(=O)Nc1ccc(Sc2ccc([N+](=O)[O-])cc2)cc1
26. CCOC(=O)CCCCCC(=O)Nc1ccc2c(c1)C(=O)N([C@@H](C)CO)C[C@H](C)[C@H](CN(C)C(=O)Nc1ccc(F)cc1)OCCCC[C@H](C)O2
27. COc1ccc([C@@]23Oc4cc(OC)cc(OC)c4[C@]2(O)[C@H](O)[C@H](C(=O)N(C)C)[C@H]3c2ccccc2)cc1
28. CCOC(=O)C1CCCN(C(=O)c2cccc(S(=O)(=O)N3CC(C)OC(C)C3)c2)C1 (configuration not stated)
29. COc1cc(C2C3=C(Nc4nc(N)[nH]c(=O)c42)c2ccccc2C3=O)ccc1O (configuration not stated)
30. C[C@H]1COC(=O)[C@@H](Cc2ccc(F)cc2)CC/C=C\C[C@H](CC(=O)NCCO)C(=O)N1
31. C[C@@H]1C[C@H]2[C@@H]3CCC4=CC(=O)C=C[C@]4(C)[C@@]3(F)[C@@H](O)C[C@]2(C)[C@H]1C(=O)CO

screen / no. | 25 | 26 | 27 | 28 | 29 | 30 | 31
A549 tox-2 | . | . | ? | . | . | . | -15%
Mito fusion yeast | 20% | . | . | -16% | -5% | . | 0%
FLuc counter 3 | . | . | 2% | . | . | . | 3%
A549 tox-1 | -6% | . | ? | 3% | 1% | 0% | -1%
Nrf2 activator | 3% | 0% | -2% | -1% | 0% | 0% | -1%
Nrf2 block | ? | . | 0.021µM* | 2% | 8% | 8% | 0.018µM*
miR-21 reporter | 21% | . | . | 7% | 5% | . | -27%
ARE-Fluc inh | . | . | 0.015µM* | . | . | . | 0.015µM*
Glioma ERSR ind | -3% | -2% | 0% | 0% | -4% | -3% | -3%

Random excerpt: two compounds from above, in no set order.
31. C[C@@H]1C[C@H]2[C@@H]3CCC4=CC(=O)C=C[C@]4(C)[C@@]3(F)[C@@H](O)C[C@]2(C)[C@H]1C(=O)CO
30. C[C@H]1COC(=O)[C@@H](Cc2ccc(F)cc2)CC/C=C\C[C@H](CC(=O)NCCO)C(=O)N1

screen / no. | 31 | 30
A549 tox-2 | -15% | .
Mito fusion yeast | 0% | .
FLuc counter 3 | 3% | .
A549 tox-1 | -1% | 0%
Nrf2 activator | -1% | 0%
Nrf2 block | 0.018µM* | 8%
miR-21 reporter | -27% | .
ARE-Fluc inh | 0.015µM* | .
Glioma ERSR ind | -3% | -3%
